Publication PMC4373488

By UniProt entry, the sequences of proteins in these tests, tags left out.
UniProt Q8CGU6, whole entry, looked up: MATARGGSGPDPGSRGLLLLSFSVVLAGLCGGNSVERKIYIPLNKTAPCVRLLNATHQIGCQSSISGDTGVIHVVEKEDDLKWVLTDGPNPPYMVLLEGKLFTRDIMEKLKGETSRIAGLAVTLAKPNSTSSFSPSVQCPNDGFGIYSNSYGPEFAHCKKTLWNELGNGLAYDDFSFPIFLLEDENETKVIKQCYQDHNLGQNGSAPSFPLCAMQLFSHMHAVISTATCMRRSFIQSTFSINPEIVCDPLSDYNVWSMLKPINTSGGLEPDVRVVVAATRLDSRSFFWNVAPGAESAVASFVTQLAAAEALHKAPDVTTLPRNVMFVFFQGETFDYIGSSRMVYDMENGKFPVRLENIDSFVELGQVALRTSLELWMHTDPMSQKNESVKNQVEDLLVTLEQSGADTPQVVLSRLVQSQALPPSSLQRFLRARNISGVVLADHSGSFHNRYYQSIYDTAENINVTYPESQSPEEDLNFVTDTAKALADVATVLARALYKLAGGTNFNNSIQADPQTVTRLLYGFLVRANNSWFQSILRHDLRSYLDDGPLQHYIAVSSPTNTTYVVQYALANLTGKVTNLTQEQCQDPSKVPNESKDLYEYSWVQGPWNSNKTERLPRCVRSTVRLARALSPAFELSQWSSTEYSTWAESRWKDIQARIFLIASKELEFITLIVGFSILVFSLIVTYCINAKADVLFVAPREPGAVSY

Target: γ-secretase complex (rat brain) (rat (endogenous in rat brain)) (UniProt Q8CGU6)
Experiment: pull-down

percent of the total TMP21 associated with γ-secretase: < 0.2%
B1: TMP21 (rat) (natural protein)
chain: ISFHLPVNSRKCLREEIHKDLLVTGAYEITDQSGGAGGLRTHLKITDSAGHILYAKEDATKGKFAFTTEDYDMFEVCFESKGTGRIPDQLVILDMKHGVEAKNYEEIAKVEKLKPLEVELRRLEDLSESIVNDFAYMKKREEEMRDTNESTNTRVLYFSIFSMFCLIGLATWQVFYLRRFFKAKKLIE
